This passage reports IC50 results from patent publication US9751885B2, “Cyclopropanamine compound and use thereof” (Takeda Pharmaceutical Company Limited, priority 2012, dated 2017).

Amino acid sequences for entries named in this document (tags omitted).
UniProt P21397, whole entry: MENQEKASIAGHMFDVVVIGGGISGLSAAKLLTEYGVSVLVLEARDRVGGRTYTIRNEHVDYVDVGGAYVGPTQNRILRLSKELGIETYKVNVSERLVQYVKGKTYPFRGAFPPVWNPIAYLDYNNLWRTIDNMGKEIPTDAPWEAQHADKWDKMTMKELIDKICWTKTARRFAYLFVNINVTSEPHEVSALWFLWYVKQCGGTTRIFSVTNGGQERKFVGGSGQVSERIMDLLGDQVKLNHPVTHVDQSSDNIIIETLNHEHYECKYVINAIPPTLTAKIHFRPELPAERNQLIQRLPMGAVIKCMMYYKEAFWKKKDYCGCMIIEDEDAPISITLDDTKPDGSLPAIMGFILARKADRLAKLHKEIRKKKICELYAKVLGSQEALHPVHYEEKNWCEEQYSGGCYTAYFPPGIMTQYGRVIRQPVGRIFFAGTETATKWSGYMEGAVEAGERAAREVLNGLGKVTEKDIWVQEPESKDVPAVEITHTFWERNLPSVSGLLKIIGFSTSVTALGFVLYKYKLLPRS
UniProt P27338, whole entry: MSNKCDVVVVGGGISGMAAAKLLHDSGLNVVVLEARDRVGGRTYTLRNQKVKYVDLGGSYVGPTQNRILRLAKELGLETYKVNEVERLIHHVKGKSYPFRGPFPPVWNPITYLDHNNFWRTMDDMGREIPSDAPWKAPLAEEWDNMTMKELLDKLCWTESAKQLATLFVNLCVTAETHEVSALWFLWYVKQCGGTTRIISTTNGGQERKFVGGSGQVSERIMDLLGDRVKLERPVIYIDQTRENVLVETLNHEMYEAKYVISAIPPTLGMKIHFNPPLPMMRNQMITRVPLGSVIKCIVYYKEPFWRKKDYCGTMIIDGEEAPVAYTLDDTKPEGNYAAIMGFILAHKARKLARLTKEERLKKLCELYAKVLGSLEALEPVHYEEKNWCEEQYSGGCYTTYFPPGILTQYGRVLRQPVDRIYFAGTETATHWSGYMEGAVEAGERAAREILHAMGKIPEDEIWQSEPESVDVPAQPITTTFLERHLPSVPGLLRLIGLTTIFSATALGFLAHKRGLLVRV

Each structure is given as a SMILES string. Counter-ions that a name gives are not always drawn. A value given as a limit tells only on which side of the number the result lay.

The target in experiment [1] is MAO-A enzyme (Homo sapiens (Human), UniProt P21397). Briefly: Measurement of MAO-A inhibitory activity (MAO-Glo Assay). It is filed as biochemical.
Experiment [2] addresses MAO-B enzyme (Homo sapiens (Human), UniProt P27338). In words: Measurement of MAO-B inhibitory activity (MAO-Glo Assay).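 Also: luminescence read-out, compound preincubated 10 min with enzyme then reacted 60 min at room temperature, inhibition relative to enzyme reaction without compound, blank lacking enzyme and compound.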 The conditions noted are these: read-out: MAO-B IC50 value.

Usually IC50 stands for the midpoint of a concentration-inhibition curve. For the molecule `Cn1cc(NC(=O)c2cccc([C@@H]3C[C@H]3NC3CCCC3)c2)cn1` (relative stereo) [Example 172, 3-(trans-2-(cyclopentylamino)cyclopropyl)-N-(1-methyl-1H-pyrazol-4-yl)benzamide dihydrochloride], in experiment [1], the IC50 is above 10 µM.
As to `O=C(Nc1nc2ccc(Oc3ccccc3)cc2s1)c1cccc([C@@H]2C[C@H]2NCC2CC2)c1` (relative stereo) [Example 135, 3-(trans-2-((cyclopropylmethyl)amino)cyclopropyl)-N-(6-phenoxy-1,3-benzothiazol-2-yl)benzamide trifluoroacetate], the IC50 in experiment [1] and in experiment [2] was above 10 µM throughout.
Consider `Cn1nc(C(C)(C)C)cc1NC(=O)c1cccc([C@@H]2C[C@H]2NCC2CC2)c1` (relative stereo) [Example 141, N-(3-tert-butyl-1-methyl-1H-pyrazol-5-yl)-3-(trans-2-((cyclopropylmethyl)amino)cyclopropyl)benzamide bis(trifluoroacetate)], for which the IC50 in experiment [1] and in experiment [2] was above 10 µM in each case.
Consider `Cc1c(NC(=O)c2cccc([C@@H]3C[C@H]3NCC(C)(C)C)c2)cnn1C` (relative stereo) [Example 156, 3-(trans-2-((2,2-dimethylpropyl)amino)cyclopropyl)-N-(1,5-dimethyl-1H-pyrazol-4-yl)benzamide dihydrochloride], for which the IC50 in experiment [1] and in experiment [2] was above 10 µM each time.
On to `Cn1cc(NC(=O)c2ccc(F)c([C@@H]3C[C@H]3NC3CCC3)c2)cn1` (relative stereo) [Example 228, 3-(trans-2-(cyclobutylamino)cyclopropyl)-4-fluoro-N-(1-methyl-1H-pyrazol-4-yl)benzamide hydrochloride], for which the IC50 in experiment [1] and in experiment [2] was above 10 µM each time.
For the molecule `COc1ccc([C@@H]2C[C@H]2NC2CCC(F)(F)CC2)cc1C(=O)Nc1nnc(C)s1` (relative stereo) [Example 222, 5-(trans-2-((4,4-difluorocyclohexyl)amino)cyclopropyl)-2-methoxy-N-(5-methyl-1,3,4-thiadiazol-2-yl)benzamide dihydrochloride], the IC50 in experiment [1] and in experiment [2] was above 10 µM in each case.
In the case of `CC(C)(C)CN[C@@H]1C[C@H]1c1cccc(C(=O)NC2CCS(=O)(=O)CC2)c1` (relative stereo) [Example 85, 3-(trans-2-((2,2-dimethylpropyl)amino)cyclopropyl)-N-(1,1-dioxidotetrahydro-2H-thiopyran-4-yl)benzamide hydrochloride], the IC50 in experiment [1] and in experiment [2] was above 10 µM throughout.
`Cc1nnc(NC(=O)c2cccc([C@@H]3C[C@H]3NCC3CCOCC3)c2)s1` (relative stereo) [Example 112, N-(5-methyl-1,3,4-thiadiazol-2-yl)-3-(trans-2-((tetrahydro-2H-pyran-4-ylmethyl)amino)cyclopropyl)benzamide dihydrochloride]: the IC50 in experiment [1] was above 10 µM.
On to `Cc1nnc(NC(=O)c2cc([C@@H]3C[C@H]3NCC3CC3)ccc2F)s1` (relative stereo) [Example 110, 5-(trans-2-((cyclopropylmethyl)amino)cyclopropyl)-2-fluoro-N-(5-methyl-1,3,4-thiadiazol-2-yl)benzamide dihydrochloride], for which, in experiment [2], the IC50 was above 10 µM.
On the same count and under the same terms, the result for `Cc1cc(NC(=O)c2cccc([C@@H]3C[C@H]3NC3CCC(F)(F)CC3)c2)n(C)n1` (relative stereo) [Example 215, 3-(trans-2-((4,4-difluorocyclohexyl)amino)cyclopropyl)-N-(1,3-dimethyl-1H-pyrazol-5-yl)benzamide dihydrochloride] reads above 10 µM.
Take `O=C(NC1CCOCC1)c1cccc([C@@H]2C[C@H]2NCC2CC2)c1` (relative stereo) [Example 100, 3-(trans-2-((cyclopropylmethyl)amino)cyclopropyl)-N-(tetrahydro-2H-pyran-4-yl)benzamide hydrochloride]: the IC50 in experiment [1] was above 10 µM.
Still for that read-out and setting: the figure for `Cn1cc(NC(=O)c2cccc([C@@H]3C[C@H]3NC3CCN(CC(F)(F)F)CC3)c2)cn1` (relative stereo) [Example 171, N-(1-methyl-1H-pyrazol-4-yl)-3-(trans-2-((1-(2,2,2-trifluoroethyl)piperidin-4-yl)amino)cyclopropyl)benzamide trihydrochloride] is above 10 µM.
Regarding `Cc1nnc(NC(=O)c2ccc(C)c([C@@H]3C[C@H]3NC3CCOCC3)c2)s1` (relative stereo) [Example 184, 4-methyl-N-(5-methyl-1,3,4-thiadiazol-2-yl)-3-(trans-2-(tetrahydro-2H-pyran-4-ylamino)cyclopropyl)benzamide dihydrochloride], the half-maximal inhibitory concentration (IC50) in experiment [2] is above 10 µM.
For `O=C(NC1CCN(CC(F)(F)F)CC1)c1cccc([C@@H]2C[C@H]2NCC2CC2)c1` (relative stereo) [Example 108, 3-(trans-2-((cyclopropylmethyl)amino)cyclopropyl)-N-(1-(2,2,2-trifluoroethyl)piperidin-4-yl)benzamide dihydrochloride], the IC50 in experiment [1] is above 10 µM.
Consider `NC1CC1c1cccc(C(=O)NC2CCN(CC(F)(F)F)CC2)c1` (stereo not drawn) [Example 251, 3-(trans-2-aminocyclopropyl)-N-(1-(2,2,2-trifluoroethyl)piperidin-4-yl)benzamide dihydrochloride [optical isomer, compound derived from methyl 3-(trans-2-((tert-butoxycarbonyl)amino)cyclopropyl)benzoate (optical isomer, retention time long)]], for which the IC50 in experiment [2] is above 10 µM.
`O=C(NC1CCOCC1)c1cc([C@@H]2C[C@H]2NCC2CC2)ccc1F` (relative stereo) [Example 111, 5-(trans-2-((cyclopropylmethyl)amino)cyclopropyl)-2-fluoro-N-(tetrahydro-2H-pyran-4-yl)benzamide hydrochloride] registered a concentration for half-maximal inhibition (IC50) in experiment [1] above 10 µM.
On to `NC1CC1c1cccc(C(=O)NC2CCOCC2)c1` (stereo not drawn) [Example 245, 3-(trans-2-aminocyclopropyl)-N-(tetrahydro-2H-pyran-4-yl)benzamide hydrochloride [optical isomer, compound derived from methyl 3-(trans-2-((tert-butoxycarbonyl)amino)cyclopropyl)benzoate (optical isomer, retention time long)]], for which the IC50 in experiment [2] is above 10 µM.
Still for that read-out and setting: the result for `Cn1cc(NC(=O)c2cc([C@@H]3C[C@H]3NC3CCC(F)(F)CC3)ccc2F)cn1` (relative stereo) [Example 186, 5-(trans-2-((4,4-difluorocyclohexyl)amino)cyclopropyl)-2-fluoro-N-(1-methyl-1H-pyrazol-4-yl)benzamide hydrochloride] reads above 10 µM.
On the same count and under the same terms, the result for `CC(C)(C)NC(=O)c1cccc([C@@H]2C[C@H]2NCC2CC2)c1` (relative stereo) [Example 114, N-tert-butyl-3-(trans-2-((cyclopropylmethyl)amino)cyclopropyl)benzamide trifluoroacetate] reads above 10 µM; that for `COc1ccc([C@@H]2C[C@H]2NC2CCOCC2)cc1C(=O)Nc1nnc(C)s1` (relative stereo) [Example 221, 2-methoxy-N-(5-methyl-1,3,4-thiadiazol-2-yl)-5-(trans-2-(tetrahydro-2H-pyran-4-ylamino)cyclopropyl)benzamide], above 10 µM.
